From US20240325557A1 (INNATE PHARMA, published 2024) come the findings set out here.

Protein sequences, listed by entry. Tags and fused reporters are not part of them. Residues count along the entry.
UniProt Q9NQS3, 58-549 limits assumed: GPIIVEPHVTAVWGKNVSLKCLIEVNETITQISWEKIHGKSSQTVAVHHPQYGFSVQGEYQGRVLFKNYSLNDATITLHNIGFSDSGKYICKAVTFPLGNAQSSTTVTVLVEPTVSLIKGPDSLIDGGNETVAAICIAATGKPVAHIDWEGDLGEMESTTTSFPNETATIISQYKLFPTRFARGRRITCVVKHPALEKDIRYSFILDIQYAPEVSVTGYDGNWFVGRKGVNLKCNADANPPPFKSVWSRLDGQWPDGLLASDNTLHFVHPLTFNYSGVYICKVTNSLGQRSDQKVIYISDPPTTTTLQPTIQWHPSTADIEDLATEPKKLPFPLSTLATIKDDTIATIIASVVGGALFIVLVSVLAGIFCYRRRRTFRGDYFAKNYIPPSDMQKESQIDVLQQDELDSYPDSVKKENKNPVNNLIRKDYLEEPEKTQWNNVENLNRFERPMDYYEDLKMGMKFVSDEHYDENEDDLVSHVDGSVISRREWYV

This assay deals with human Nectin 3 on CHO cells (human, UniProt Q9NQS3 58-549). Description: flow cytometry on CHO cells expressing human Nectin 3. As for the experimental part: Anti-Nectin-4 antibodies were tested by flow cytometry for binding to different CHO cell lines made to express respectively the human Nectin 1, Nectin 2, Nectin 3 and PVR proteins. The expression of each cell lines was controlled and validated with known respectively the anti-human Nectin1, anti-human Nectin2, anti-human Nectin3 and anti-human PVR antibodies. The mature amino acid sequence of the proteins expressed by the cells were as follows:
Nectin 1, Nectin 2, Nectin 3 and PVR proteins as in Example 12. […] Epitope mapping was carried out by assessing competition for binding to Nectin-4 by SPR as in Example 14.
(In general: Flow cytometry measures light scatter and fluorescence of single cells or particles in a stream.)

B1: antibody 6C11B (antibody, human IgG1, V domains shown)
VH: EVQLQQSGPELVKPGASVKISCKTSGYTFTEYTIHWVKQNHGKSLEWIGRINPKNGDIIHNQNFMGKATLTVDKSSSTAYMELRSLTSEDSAVCYCARSGYGSSYGFAYWGQGTLVTVSA
VL: DIVMTQSPTSLVVSLGQRATISCRASQSVTTPRYSYMHWYQQKPGQPPKLLIKYASNLESGVPARFSGSGSGTDFTLNIHPVEEEDTATYYCQHSWEIPYTFGGGTKLEIK
notes: also called 6CB11; CHG1-M-4N4-6C11B
With B1, the binding result is on record as “no binding”.

B2: antibody 6A7 (antibody, human IgG1, V domains shown)
VH: QVQLKESGAELVKPGASVKLSCKASGYTFTSYWMHWVKQRPGHGLEWVGEIDPSDSYTNYNQKFKGKATLTIDKSSSTVYMQLSSLTSEDSAVYYCARSGNYDAMDYWGQGTSVTVSA
VL: DIVMTQAAFSSAVTLGTSASISCRSSKSLLHSNGITYLYWYLQKPGQSPHFLIYQMSNLASGVPDRFTSSGSGTDFTLRISRVEAEDVGVYYCAQNLELPWTFGGGTKLEIK
notes: also called CHG1-M-4N4-6A7
For B2, the binding result was “no binding”.
